In PubChem BioAssay AID2676 (National Center for Advancing Translational Sciences (NCATS), 2010) one finds activation data, which are given here for 63 compounds.

Protein sequences, listed by entry. Tags and fused reporters are not part of them.
UniProt Q9HBX9, whole entry: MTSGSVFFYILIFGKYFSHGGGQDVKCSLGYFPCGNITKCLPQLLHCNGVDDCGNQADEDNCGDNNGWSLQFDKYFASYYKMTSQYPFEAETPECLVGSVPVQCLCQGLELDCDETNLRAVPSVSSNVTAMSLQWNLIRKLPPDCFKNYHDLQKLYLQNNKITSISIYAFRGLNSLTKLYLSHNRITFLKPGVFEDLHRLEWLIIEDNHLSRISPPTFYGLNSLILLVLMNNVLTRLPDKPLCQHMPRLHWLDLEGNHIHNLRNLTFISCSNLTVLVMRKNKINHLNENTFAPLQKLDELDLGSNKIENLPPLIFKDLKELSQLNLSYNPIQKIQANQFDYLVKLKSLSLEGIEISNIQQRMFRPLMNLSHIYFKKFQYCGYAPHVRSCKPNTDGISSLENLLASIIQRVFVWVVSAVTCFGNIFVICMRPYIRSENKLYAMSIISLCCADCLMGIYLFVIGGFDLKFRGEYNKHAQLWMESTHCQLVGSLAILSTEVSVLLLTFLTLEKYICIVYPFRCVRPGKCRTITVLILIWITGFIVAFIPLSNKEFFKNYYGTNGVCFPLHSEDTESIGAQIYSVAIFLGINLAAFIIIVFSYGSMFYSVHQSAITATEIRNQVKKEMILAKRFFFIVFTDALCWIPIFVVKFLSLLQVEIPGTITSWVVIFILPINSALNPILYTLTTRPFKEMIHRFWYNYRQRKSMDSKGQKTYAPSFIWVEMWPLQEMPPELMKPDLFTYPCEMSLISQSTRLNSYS

The structures appear in SMILES notation. The list shows a part of the results, in another mix than the full data. Some structures show a salt or complex split into parts, the way the source records it. The source made the active and inactive calls. Calls follow the shape of the dose curve; as a rule, active = well fitted activation curve with a large enough effect; inconclusive = small, poorly fitted or top-dose-only effect; inactive = flat fitted curve, though single readings scatter.
% is scaled to controls: 0 for no effect and ±100 for the full control effect.

The test has as its target Relaxin receptor 1 (Homo sapiens) (UniProt Q9HBX9). Kind of test: qHTS Assay for Agonists of the Relaxin Receptor RXFP1. Also: nearly all actives have a fitted effect of over 60% in size. As to conditions: HEK293T-RXFP1 cAMP TR-FRET, 30 min, percent of porcine relaxin response, buffer zero; at 57.5 µM (top of the series). The source says:
NIH Chemical Genomics Center [NCGC] NIH Molecular Libraries Probe Production Centers Network [MLPCN] MLPCN Grant: R03 MH085705-01A1 Assay Submitter (PI): Alexander Agoulnik NCGC Assay Overview: The relaxin hormone is involved in the variety of biological functions in normal tissues and diseases. The role of relaxin is well-established in female reproduction and parturition, mammary gland and endometrial development, maintenance of myometrial quiescence during pregnancy. Relaxin signaling through its G protein-coupled receptor (GPCR) RXFP1 results in ECM remodeling through regulation of collagen deposition, cell invasiveness, proliferation and overall tissue homeostasis. […] Recombinant human relaxin (rhRlx) is currently being tested in clinical trials as a protective agent in congestive heart failure, in treating severe preeclampsia, and as an anti-fibrotic agent in systemic sclerosis. Upon relaxin binding RXFP1 activation leads to the activation of adenylate cyclase (AC) via Gs. cAMP will activate PKA, which phosphorylates many signaling proteins. Thus, detection of cAMP increase is an easy and reliable indication of relaxin receptor activation. To screen for agonists of the relaxin receptor, a HEK293T cell line stably transfected with RXFP1 was used. RXFP1 activation was assayed by changes in cAMP levels as detected with a time-resolved fluorescence energy transfer (TR-FRET) cAMP detection kit.
NCGC Assay Protocol Summary: This is a cell-based assay for cAMP second messenger response to screen for agonists of the RXFP1 receptor. The assay was conducted in the presence of a PDE4 inhibitor (Ro 20174). The cells were lysed and the cAMP levels were measured with a TR-FRET cAMP kit. Presence of cAMP in the cell lysate disrupts binding between the cryptate-labeled anti-cAMP and d2-labeled cAMP pair, leading to a decrease in the TR-FRET signal. Data were normalized to the controls for basal activity (buffer only) and 100% activity (29 nM porcine relaxin). The EC50 values were determined from concentration-response data modeled with the standard Hill equation 1536-well assay protocol for the HEK293 RXFP1 cAMP assay: (1) Add 3 ul HEK293 RXFP1 cell culture. 2000 cells/well in DMEM/F12, 10% FBS, 1x Pen/Strep (dispensed offline with MultiDrop Combi). (2) Incubate 16-24 hr at 37C, 5% CO2. (3) Add 1 ul 400uM Ro20174 in DPBS, 0.05% BSA, 0.005% Tween 20. (3) Add 23 nl compounds in DMSO solution. Final concentration was 0.5 - 58 uM. (4) Incubate 30 min at 37C, 5% CO2. (5) Add 1 ul cAMP-d2 in lysis buffer (HTRF cAMP HiRange kit, CisBio). (6) Add 1 ul anti-cAMP antibody-cryptate in lysis buffer (HTRF cAMP HiRange kit, CisBio). (7) Incubate 30 min at room temperature. (6) Detect the assay plate in a ViewLux plate reader (PerkinElmer) with Ex=320 nm, Em1=615 nm and Em2=665 nm. Keywords: relaxin, RXFP1, RXFP2, G-protein coupled receptor, cAMP, agonist, high throughput screening, MLSMR, MLSCN, NIH Roadmap, qHTS and NCGC
For orientation: qHTS replaces the single test concentration by a dilution series.
For `COc1cc(OC)c(C(=O)NCC2(N(C)C)CCCCC2)cc1OC`, the activation was inactive: -0.0411%.

As for `CC(C)c1ccc(NC2CCN(C(=O)OC(C)(C)C)CC2)cc1`, the activation is inactive: 0.69%.

Take `CN(C)c1cccc(C(=O)NCC2(N3CCCCC3)CCCCC2)c1`: the activation was inactive: 0.86%.

In the case of `O=[N+]([O-])c1cc([N+](=O)[O-])c(OC2CCCCC2O)c([N+](=O)[O-])c1` (stereo not drawn), the activation is inactive: 1.05%.

With `COc1ccc(CN(CCCl)CCCl)cc1Cl`, the activation is inactive: 0.249%.

For the compound `O=C(NCC1(N2CCOCC2)CCCCC1)c1ccccc1Br`, the activation is inactive: -1.42%.

In the case of `CCCOc1ccc(C(=O)NCC2(N(C)C)CCCCC2)cc1OC`, the activation is inactive: 4%.

Turning to `CCCCOc1ccccc1C(=O)NCC1(N2CCOCC2)CCCCC1`, the activation was inactive: -1.5%.

Regarding `O=C(OC1CN2CCC1CC2)c1ccc([N+](=O)[O-])cc1` (stereo not drawn), the activation is inactive: 0.482%.

For `COc1ccc2c(c1O)-c1c(O)c(OC)cc3c1[C@H](C2)[N+](C)(C)CC3.O=[N+]([O-])c1cc([N+](=O)[O-])c([O-])c([N+](=O)[O-])c1[O-]`, the activation is inactive: -0.154%.

`O=C(NCC1(N2CCCCC2)CCCCC1)c1cncc(Br)c1`: the activation is inactive: 1.44%.

As for `N#CC1(Nc2ccccc2)CCN(CCc2ccccc2)CC1`, the activation is inactive: 0.455%.

As for `CCN1CCC(Nc2ccc(Cl)cc2)CC1`, the activation was inactive: -1.18%.

On to `CSc1ccc(C(=O)NCC2(N3CCOCC3)CCCCC2)cc1`, for which the activation is inactive: -0.471%.

With `CCOc1ccc(C(=O)NCC2(N3CCOCC3)CCCCC2)cc1`, the activation was inactive: 0.122%.

With `O=C(NCC1(N2CCCCC2)CCCCC1)c1cccc([N+](=O)[O-])c1`, the activation was inactive: 1.27%.

Turning to `O=C(NCC1(N2CCCCC2)CCCCC1)c1ccc(OC(F)F)cc1`, the activation was inactive: 4.27%.

As to `O=C(NCC1(N2CCOCC2)CCCCC1)c1cc(=O)[nH]c2ccccc12`, the activation was inactive: -0.701%.

As to `COc1cc(C(=O)NCC2(N3CCCCC3)CCCCC2)ccc1OC(F)F`, the activation was inactive: 2.77%.

For `CC(C)c1ccc(C(=O)NCC2(N3CCOCC3)CCCCC2)cc1`, the activation is inactive: 0.808%.

In the case of `COc1ccc(NC2CCN(C(=O)OC(C)(C)C)CC2)cc1`, the activation is inactive: 0.874%.

Take `CN1CCN(CCOC(=O)C(O)(c2ccccc2)c2ccccc2)CC1`: the activation is inactive: 4.37%.

Take `O=[N+]([O-])c1cc([N+](=O)[O-])c(NCC2CCS(=O)(=O)C2)c([N+](=O)[O-])c1` (stereo not drawn): the activation is inactive: 3.34%.

With `O=C(NCC1(N2CCCCC2)CCCCC1)c1cccc(C(F)(F)F)c1`, the activation was inactive: 2.89%.

For the compound `CCCOc1cccc(C(=O)NCC2(N3CCOCC3)CCCCC2)c1`, the activation was inactive: 0.181%.

Take `COc1ccccc1C(=O)NCC1(N2CCOCC2)CCCCC1`: the activation is inactive: 1.71%.

`CCOC(=O)N1CCC(Nc2ccc(F)cc2)CC1`: the activation is inactive: -0.0102%.

As for `COc1ccc(NC2CCN(CCc3ccccc3)CC2)c(OC)c1`, the activation was inactive: -2.86%.

`CCCCOc1ccc(C(=O)NCC2(N3CCOCC3)CCCCC2)cc1`: the activation was inactive: 1.41%.

With `O=C(NCC1(N2CCCCC2)CCCCC1)c1ccc(F)cc1`, the activation is inactive: -1.42%.

With `O=C(NCC1(N2CCOCC2)CCCCC1)c1ccc(Cl)cc1`, the activation is inactive: -3.37%.

As for `CCOc1ccc(C)cc1CN(CCCl)CCCl`, the activation is inactive: 0.112%.

For the compound `Cc1ccc(OCC(C)C)c(CN(CCCl)CCCl)c1`, the activation was inactive: 1.27%.

In the case of `CCOC(=O)N1CCC(Nc2cccc(C)c2)CC1`, the activation is inactive: 0.687%.

For the compound `COc1cc(C(=O)NCC2(N(C)C)CCCCC2)ccc1OC(F)F`, the activation was inactive: 2.03%.

In the case of `CSc1ccccc1C(=O)NCC1(N2CCCCC2)CCCCC1`, the activation was inactive: -0.834%.

`CC(C)(C)OC(=O)N1CCC(N(C(=O)c2ccccc2)c2ccc(F)cc2)CC1`: the activation is inactive: -0.857%.

Turning to `COc1ccc(C(=O)NCC2(N3CCCCC3)CCCCC2)c(OC)c1OC`, the activation is inactive: 1.33%.

As to `COc1ccc(C(=O)NCC2(N3CCCCC3)CCCCC2)cc1`, the activation was inactive: -0.93%.

As to `O=C(NCC1(N2CCCCC2)CCCCC1)c1cccs1`, the activation is inactive: -1.06%.

For the compound `O=C(NCC1(N2CCCCC2)CCCCC1)c1ccc(=O)[nH]c1`, the activation was inactive: 2.93%.

Take `COc1ccc(Cl)cc1C(=O)NCC1(N2CCOCC2)CCCCC1`: the activation was inactive: 0.387%.

As to `N#CC1(Nc2ccccc2)CCN(Cc2ccccc2)CC1`, the activation is inactive: 0.779%.

In the case of `O=C(NCC1(N2CCCCC2)CCCCC1)c1ccc(Cl)s1`, the activation is inactive: -0.0954%.

Consider `O=C(OC1CN2CCC1CC2)C1c2ccccc2Oc2ccccc21` (stereo not drawn), for which the activation is inactive: 1.5%.

Regarding `CCOC(=O)N1CCC(Nc2ccc(OC)cc2)CC1`, the activation was inactive: -2.73%.

Take `Cc1cc(C)cc(N(C(=O)c2ccccc2)C2CCN(C(=O)OC(C)(C)C)CC2)c1`: the activation is inactive: 4.85%.

`O=C(NCC1(N2CCCCC2)CCCCC1)c1ccc(Cl)nc1`: the activation was inactive: -0.176%.

Take `O=C(NCC1(N2CCOCC2)CCCCC1)c1cc2ccccc2o1`: the activation is inactive: 0.455%.

As to `O=C(O)C1(Nc2ccccc2)CCN(Cc2ccccc2)CC1`, the activation is inactive: -0.708%.

Regarding `CC(C)(C)OC(=O)N1CCC(Nc2ccccc2)CC1`, the activation was inactive: 2.36%.

Regarding `CCCOc1ccc(C(=O)NCC2(N(C)C)CCCCC2)cc1`, the activation is inactive: 4.75%.

As for `CN1CCC(Nc2ccc(F)c(Cl)c2)CC1`, the activation is inactive: 3.67%.

Take `CCOc1ncccc1C(=O)NCC1(N2CCOCC2)CCCCC1`: the activation is inactive: 4%.

`CN1CCC(Nc2ccc(Cl)cc2)CC1`: the activation was inactive: 1.05%.

In the case of `CCCOc1ccc(C)cc1CN(CCCl)CCCl`, the activation was inactive: -0.0919%.

Regarding `COc1cccc(C(=O)N(c2cc(C)cc(C)c2)C2CCN(C(=O)OC(C)(C)C)CC2)c1`, the activation was inactive: -1.82%.

Regarding `COc1cc(OC)cc(C(=O)NCC2(N3CCOCC3)CCCCC2)c1`, the activation was inactive: 1.2%.

In the case of `COc1cc(C(=O)NCC2(N3CCOCC3)CCCCC2)cc(OC)c1OC`, the activation was inactive: 1%.

With `CCC(CO)(C(=O)OC1CN2CCC1CC2)c1ccccc1` (stereo not drawn), the activation is inactive: 2.78%.

Consider `Fc1ccccc1NC1CCN(Cc2ccccc2)CC1`, for which the activation is inactive: 0.59%.

Take `Cc1ccc(C(=O)NCC2(N3CCCCC3)CCCCC2)o1`: the activation is inactive: -1.63%.

On to `CN(C)C1(CNC(=O)c2ccc(C(C)(C)C)cc2)CCCCC1`, for which the activation was inactive: 0.0483%.
